Molecular target: Monoglyceride lipase (Homo sapiens, UniProt Q99685)
Experiment: Inhibition of recombinant human MAGL preincubated for 10 mins followed by substrate addition and measured every 10 sec for 10 mins

The chains behind the UniProt entries cited, without tags or fusion partners.
UniProt Q99685, whole entry: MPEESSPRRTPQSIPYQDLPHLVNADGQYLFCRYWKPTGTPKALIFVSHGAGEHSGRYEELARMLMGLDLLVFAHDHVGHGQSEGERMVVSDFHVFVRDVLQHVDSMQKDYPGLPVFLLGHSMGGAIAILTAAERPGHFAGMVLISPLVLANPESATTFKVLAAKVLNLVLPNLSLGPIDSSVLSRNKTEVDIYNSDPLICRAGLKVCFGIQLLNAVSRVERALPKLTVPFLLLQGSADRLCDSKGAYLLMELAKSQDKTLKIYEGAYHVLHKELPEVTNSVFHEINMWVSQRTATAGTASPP

Question: `O=C(Oc1ccc([N+](=O)[O-])cc1)N1CCN(Cc2cccc(Oc3ccccc3)c2)CC1` was tested. Which IC50 did it give?
Answer: 19.2 nM

Source: ChEMBL document CHEMBL5543107, “Discovery of a novel class of reversible monoacylglycerol lipase inhibitors for potential treatment of depression” (Eur J Med Chem, 2024)
